Patent US20110098241A1, “RAPAMYCIN ANALOGS AS ANTI-CANCER AGENTS” (PONIARD PHARMACEUTICALS, INC., priority 2008, published 2011)

Target: T1, mTOR (UniProt P42346+P62942)
T1 construct: purchased Calbiochem CBA055
Test: mTOR Assay Screening Protocol (K-LISA mTOR Activity Kit, inhibitor with FKBP12)
Type: biochemical
Settings: mTOR Standard pre-incubated with inhibitor and FKBP12 (35-37 ug/ml); p70S6K-T389 phosphorylation ELISA, absorbance at 450 nm
Description: mTOR Assay Screening Protocol
Kit: Calbiochem Cat. No. CBA055: K-LISA mTOR Activity Kit
The following table provides reagent preparation instructions to obtain the volume of Working Solutions (WS) required for 10 wells. Volumes can be scaled to process more samples and provide overage for pipetting error.
Reagent Volume (per 10-well strip) Composition: mTOR Substrate WS: 1 ml Dilution factor: 1:400 FKBP12: Sigma F5398 FK-Binding Protein human, recombinant, expressed in Escherichia coli
A. Protocol for mTOR Kinase Activity and Inhibitor Screening: 1. Remove the required number of strips from the Glutathione-Coated 96-Well Plate and place them in the 96-well frame. 2. Add 100 μl mTOR Substrate WS to each well and incubate for 1 h at room temperature. 3. When performing inhibitor screening/testing, pre-incubate 50 μl mTOR Standard (from step 2) with test inhibitor or wortmannin in a separate tube on ice for 20 min (for example 50 μl mTOR Standard with 1 μl Woltmannin, 50×). […]
*Pre-incubated with inhibitor in step 3 or without inhibitor 6. […] Add 100 pd ELISA Stop Solution to each well and read the absorbance at 450 nm, preferably with a reference wavelength set at 595 nm. […]

For “42-O—[(R)-3-Hydroxypyrrolidin-1-yl)acetyl]-rapamycin [Example 7]”, the IC50 was 170 nM.
